Assay results published in article PMC7794245, “Potent DNA gyrase inhibitors bind asymmetrically to their target using symmetrical bifurcated halogen bonds” (Nature Communications, 2021).

Test system: HUVEC
Experiment: Metabolic activity assessment (CellTiter 96 Aqueous One), HUVEC
Format: cell-based, human
Settings: read-out: HUVEC IC50; 72 h treatment, mean ± SD
Description: Supplementary Table 7. Results of cytotoxicity studies.
Metabolic activity assessment
Cells of the HepG2 line ( ATCC® HB-8065™) and HUVEC ( ATCC® CRL-1730™) were cultured in Dulbecco’s Modified Eagle Medium (DMEM; Sigma-Aldrich, St. Louis, MO, USA) supplemented with 10% heat -deactivated FBS (Gibco, Grand Island/NY, USA), 2 mM L -glutamine, 100 U/mL penicillin, 100 µg/mL streptomycin (all from Sigma -Aldrich) in a humidified chamber at 37 °C and 5% CO2. The experiments were carried out on passages 7 - 9 for both cell lines. The tested compounds were dissolved in DMSO and further diluted in culture medium to a desired final concentration. […]
For IC 50 determination, cells were seeded into 96 -well plates at 5 × […]
10^4 cells/mL (100 µL/well) and after attachm ent treated with seven different concentration of the selected compounds or corresponding vehicle as control. The metabolic activity was assessed after 72 h treatment using the CellTiter 96 Aqueous One Solution Cell Proliferation Assay (Promega, Madison/WI, USA), in accordance with the manufacturer’s instructions .7 The absorbance was measured at 492 nm on an automated microplate reader BioTek Synergy HT (BioTek Instruments, Inc.). […] IC 50 values were calculated by a non -linear regression model using Graph Pad Prism 7 software. […]

COc1ccc2nccc(CCN3CCC(NCc4ccc(CO)cc4)CC3)c2n1
IC50: > 50 µM
